Tested on: ESKAPE pathogens and Escherichia coli
Conditions: initial MDR panel of GNB and GPB (ESKAPE pathogens and E. coli); MHB2
Description: Bacteria were incubated with each of the indicated peptides in MHB2. […] To assess bactericidal properties of the peptide, the assay was modified by using 15% fetal bovine serum (FBS, for a more physiologically relevant test condition) mixed with 25% MHB2 and 60% PBS. […] Data were analyzed using GraphPad Prism software.

For `CC[C@H](C)[C@H](N)C(=O)N[C@@H](CC(C)C)C(=O)N1CCC[C@H]1C(=O)N[C@@H](Cc1c[nH]c2ccccc12)C(=O)N[C@@H](CCCCN)C(=O)N[C@@H](Cc1c[nH]c2ccccc12)C(=O)N1CCC[C@H]1C(=O)N[C@@H](Cc1c[nH]c2ccccc12)C(=O)N[C@@H](Cc1c[nH]c2ccccc12)C(=O)N1CCC[C@H]1C(=O)N[C@@H](Cc1c[nH]c2ccccc12)C(=O)N[C@@H](CCCNC(=N)N)C(=O)N[C@@H](CCCNC(=N)N)C(N)=O` [indolicidin], the “mean MIC” value was over 10 µM.
